Measurements published in patent US20050042205A1.

Target: rat testicular FSH receptor (FSH-R) expressed from the cloned cDNA (expression vector pCFSH-R) in transiently transfected human embryonic kidney 293 cells (rat) (UniProt P20395)

cAMP (pmoles/10^6 cells) at 25 nM hormone (pmoles/10^6 cells): 700
Substance: oFSH, highly purified (NIDDK-oFSH-17; 20 U/mg) (from UniProt P01218) (ligand)
